Results on 1 compound are retold here after patent US11352316B2, “Opioid receptor modulators and products and methods related thereto” (priority 2018, dated 2022).

The experiment deals with Male Sprague-Dawley rats. Briefly: Respiratory depression assay (whole body plethysmograph). To be noted: rat, 30 mg/kg SC after fentanyl 3 mg/kg SC, FIG. 2.

Each structure is given as a SMILES string.

For `CN(C)[C@H](CNC(=O)[C@@H]1C[C@]1(C)c1ccccc1)Cc1ccc(O)cc1Cl` [Compound B-15, (1R,2S)—N—((S)-3-(2-chloro-4-hydroxyphenyl)-2-(dimethylamino)propyl)-2-methyl-2-phenylcyclopropane-1-carboxamide], the “effect on respiratory depression of fentanyl (minute volume, % of baseline)” value is “blocks in vivo the respiratory depression of the MOR agonist fentanyl”.
